Results reported in patent US20250092029A1 (THE WISTAR INSTITUTE OF ANATOMY AND BIOLOGY, priority 2022, published 2025).

Target: thrombin (Homo sapiens (Human), UniProt P00734)
Test: Thrombin enzymatic assay
Assay type: biochemical
Details: read-out: Thrombin IC50

O=C(CN1C(=O)[C@@H](NC(=O)c2cc3ccccc3cn2)COc2ccccc21)N[C@@H](C[C@@H]1CCNC1=O)C(=O)COC(=O)c1c(Cl)cccc1Cl
IC50: > 32 µM
